Results on two compounds are retold here after patent publication US11117899B2, “[1,2,4]triazolo[1,5-c]pyrimidine derivative as A2A receptor inhibitor” (MEDSHINE DISCOVERY INC., priority 2017, dated 2021).

One may read the IC50 as the midpoint of a concentration-inhibition curve.

The target in this assay is Human adenosine A2A receptor (Homo sapiens, UniProt P29274). The experiment in a line: Human adenosine A2A receptor calcium flux assay. The settings on record: read-out: IC50 value; A2A stable CHO cell strain, antagonist mode against agonist NECA at EC80, FLIPR Fluo-4. The protocol: Human adenosine A2A receptor calcium flux assay
A2A stable cell strain was constructed by Shanghai WuXi PharmaTech, and the host cell was CHO.
Fluo-4 Direct Kit (Invitrogen, Cat. No. F10471). After the fluorescent detection reagent (specifically binding to calcium ions and causing an increase in fluorescence signal) in the kit was incubated with the cells for a suitable period of time, the compound was added to stimulate the cells to cause changes in intracellular calcium flux, thereby causing changes in the fluorescent signal, which can reflect the strength of the agonistic or inhibitory activity of the compound.
F12+10% fetal bovine serum+geneticin 300 ug/ml+blasticidin 2 ug/ml Compound dilution buffer: […]
FLIPR instrument software was run. According to the programmed procedure, 10 ul of compound dilution buffer was added to the cell plate and the fluorescence signal was read. 10 ul of the agonist reference compound at the indicated concentration was then added to the cell plate and the fluorescent signal was read. After reading, the data was exported by the “Max-Min”, “Read 90 to Maximum allowed” method in the software, and the EC80 of the A2A cell line was calculated. […]
FLIPR instrument software was run. According to the programmed procedure, 10 μl of the test compounds and reference compound at an indicated concentration was added to the cell plate and the fluorescence signal was read. […]
A general note: Calcium assays in cells follow changes in intracellular calcium, usually with a dye or a luminescent sensor.

Regarding `Cc1cc(-c2c(-c3ccccc3)nc(N)n3nc(CN(C)C)nc23)cc(C(F)(F)F)n1`, the IC50 turned out to be 3.47 nM. Next, `Cc1cc(-c2c(-c3ccccc3)nc(N)n3nc(CO[C@H]4CCOC4)nc23)cc(C(F)(F)F)n1`: 3.13 nM.
